The chains are these.
B1: TNT72 DAR1: humanized anti-CD22 antibody TNT72 "conjugated with CpG (SEQ ID NO: 3) with a DAR1 configuration" (conjugate)
heavy: QVQLQESGPGLVKPSDTLSLTCTVSGFAFSIYDMSWIRQPPGKGLEWIAYISSGGGTTYYNPSLKSRVTISVDTSKNQFSLKLSSVTAADTAVYYCARHSGYGTHWGVLFAYWGRGTLVTVSSASTKGPSVFPLAPSSKSTSGGTAALGCLVKDYFPEPVTVSWNSGALTSGVHTFPAVLQSSGLYSLSSVVTVPSSSLGTQTYICNVNHKPSNTKVDKKVEPKSCDKTHTCPPCPAPEAAGAPSVFLFPPKPKDTLMISRTPEVTCVVVDVSHEDPEVKFNWYVDGVEVHNAKTKPREEQYNSTYRVVSVLTVLHQDWLNGKEYKCKVSNKALPAPIEKTISKAKGQPREPQVYTLPPSREEMTKNQVSLTCLVKGFYPSDIAVEWESNGQPENNYKTTPPVLDSDGSFFLYSKLTVDKSRWQQGNVFSCSVMHEALHNHYTQKSLSLSPGRPQGFGPP
light: DIQMTQSPSSLSASVGDRVTITCRASQDIHGYLNWYQQKPGKAPKLLIYYTSILHSGVPSRFSGSGSGTDFTLTISSLQPEDFATYFCQQGNTLPWTFGQGTKLEIKRTVAAPSVFIFPPSDEQLKSGTASVVCLLNNFYPREAKVQWKVDNALQSGNSQESVTEQDSKDSTYSLSSTLTLSKADYEKHKVYACEVTHQGLSSPVTKSFNRGEC
B2: TNT71 DAR1: humanized anti-CD22 antibody TNT71 "conjugated with CpG (SEQ ID NO: 3) with a DAR1 configuration" (conjugate)
heavy: EVQLVESGGGLVQPGGSLRLSCAASGFTFSSYEMNWVRQAPGKGLEWVSYISSSGSTIYYADSVKGRFTISRDNAKNSLYLQMNSLRAEDTAVYYCARHSGYGTHWGVLFAYWGRGTLVTVSSASTKGPSVFPLAPSSKSTSGGTAALGCLVKDYFPEPVTVSWNSGALTSGVHTFPAVLQSSGLYSLSSVVTVPSSSLGTQTYICNVNHKPSNTKVDKKVEPKSCDKTHTCPPCPAPEAAGAPSVFLFPPKPKDTLMISRTPEVTCVVVDVSHEDPEVKFNWYVDGVEVHNAKTKPREEQYNSTYRVVSVLTVLHQDWLNGKEYKCKVSNKALPAPIEKTISKAKGQPREPQVYTLPPSREEMTKNQVSLTCLVKGFYPSDIAVEWESNGQPENNYKTTPPVLDSDGSFFLYSKLTVDKSRWQQGNVFSCSVMHEALHNHYTQKSLSLSPGRPQGFGPP
light: DIQMTQSPSSLSASVGDRVTITCRASQDIHGYLNWYQQKPGKAPKLLIYYTSILHSGVPSRFSGSGSGTDFTLTISSLQPEDFATYFCQQGNTLPWTFGQGTKLEIKRTVAAPSVFIFPPSDEQLKSGTASVVCLLNNFYPREAKVQWKVDNALQSGNSQESVTEQDSKDSTYSLSSTLTLSKADYEKHKVYACEVTHQGLSSPVTKSFNRGEC
B3: TNT74 DAR1: humanized anti-CD22 antibody TNT74 "conjugated with CpG (SEQ ID NO: 3) with a DAR1 configuration" (conjugate)
heavy: QVQLLESGGGVVQPGGSLRLSCAASGFAFSIYDMNWVRQAPGKGLEWVSAISSGGGTTYYADSVKGRFTISRDNAKNSLYLQMNSLRAEDTAVYYCARHSGYGTHWGVLFAYWGRGTLVTVSSASTKGPSVFPLAPSSKSTSGGTAALGCLVKDYFPEPVTVSWNSGALTSGVHTFPAVLQSSGLYSLSSVVTVPSSSLGTQTYICNVNHKPSNTKVDKKVEPKSCDKTHTCPPCPAPEAAGAPSVFLFPPKPKDTLMISRTPEVTCVVVDVSHEDPEVKFNWYVDGVEVHNAKTKPREEQYNSTYRVVSVLTVLHQDWLNGKEYKCKVSNKALPAPIEKTISKAKGQPREPQVYTLPPSREEMTKNQVSLTCLVKGFYPSDIAVEWESNGQPENNYKTTPPVLDSDGSFFLYSKLTVDKSRWQQGNVFSCSVMHEALHNHYTQKSLSLSPGRPQGFGPP
light: DIQMTQSPSSVSASVGDRVTITCRASQDIHGYLAWYQQKPGKAPKLLIYYTSSLQSGVPSRFSGSGSGTDFTLTISSLQPEDFATYYCQQGNTLPWTFGQGTKLEIKRTVAAPSVFIFPPSDEQLKSGTASVVCLLNNFYPREAKVQWKVDNALQSGNSQESVTEQDSKDSTYSLSSTLTLSKADYEKHKVYACEVTHQGLSSPVTKSFNRGEC
B4: TNT70 DAR1: humanized anti-CD22 antibody TNT70 "conjugated with CpG (SEQ ID NO: 3) with a DAR1 configuration" (conjugate)
heavy: QVQLLESGGGVVQPGGSLRLSCAASGFAFSIYDMNWVRQAPGKGLEWVSAISSGGGTTYYADSVKGRFTISRDNAKNSLYLQMNSLRAEDTAVYYCARHSGYGTHWGVLFAYWGRGTLVTVSSASTKGPSVFPLAPSSKSTSGGTAALGCLVKDYFPEPVTVSWNSGALTSGVHTFPAVLQSSGLYSLSSVVTVPSSSLGTQTYICNVNHKPSNTKVDKKVEPKSCDKTHTCPPCPAPEAAGAPSVFLFPPKPKDTLMISRTPEVTCVVVDVSHEDPEVKFNWYVDGVEVHNAKTKPREEQYNSTYRVVSVLTVLHQDWLNGKEYKCKVSNKALPAPIEKTISKAKGQPREPQVYTLPPSREEMTKNQVSLTCLVKGFYPSDIAVEWESNGQPENNYKTTPPVLDSDGSFFLYSKLTVDKSRWQQGNVFSCSVMHEALHNHYTQKSLSLSPGRPQGFGPP
light: DIQMTQSPSSLSASVGDRVTITCRASQDIHGYLNWYQQKPGKAPKLLIYYTSILHSGVPSRFSGSGSGTDFTLTISSLQPEDFATYFCQQGNTLPWTFGQGTKLEIKRTVAAPSVFIFPPSDEQLKSGTASVVCLLNNFYPREAKVQWKVDNALQSGNSQESVTEQDSKDSTYSLSSTLTLSKADYEKHKVYACEVTHQGLSSPVTKSFNRGEC
B5: TNT84: one of the "humanized RFB4 variants" that bind human CD22; "affinities equivalent to RFB4" (antibody)
heavy: QVQLQESGPGLVKPSDTLSLTCTVSGFAFSIYDMSWIRQPPGKGLEWIAYISSGGGTTYYNPSLKSRVTISVDTSKNQFSLKLSSVTAADTAVYYCARHSGYGTHWGVLFAYWGRGTLVTVSSASTKGPSVFPLAPSSKSTSGGTAALGCLVKDYFPEPVTVSWNSGALTSGVHTFPAVLQSSGLYSLSSVVTVPSSSLGTQTYICNVNHKPSNTKVDKKVEPKSCDKTHTCPPCPAPEAAGAPSVFLFPPKPKDTLMISRTPEVTCVVVDVSHEDPEVKFNWYVDGVEVHNAKTKPREEQYNSTYRVVSVLTVLHQDWLNGKEYKCKVSNKALPAPIEKTISKAKGQPREPQVYTLPPSREEMTKNQVSLTCLVKGFYPSDIAVEWESNGQPENNYKTTPPVLDSDGSFFLYSKLTVDKSRWQQGNVFSCSVMHEALHNHYTQKSLSLSPGRPQGFGPP
light: EIVLTQSPATLSLSPGERATLSCRASQDIHGYLNWYQQKPGQAPRLLIYYTSILHSGIPARFSGSGPGTDFTLTISSLEPEDFAVYYCQQGNTLPWTFGGGTKLEIKRTVAAPSVFIFPPSDEQLKSGTASVVCLLNNFYPREAKVQWKVDNALQSGNSQESVTEQDSKDSTYSLSSTLTLSKADYEKHKVYACEVTHQGLSSPVTKSFNRGEC
B6: TNT76 (antibody)
heavy: QVQLQESGPGLVKPSDTLSLTCTVSGFAFSIYDMSWIRQPPGKGLEWIAYISSGGGTTYYNPSLKSRVTISVDTSKNQFSLKLSSVTAADTAVYYCARHSGYGTHWGVLFAYWGRGTLVTVSSASTKGPSVFPLAPSSKSTSGGTAALGCLVKDYFPEPVTVSWNSGALTSGVHTFPAVLQSSGLYSLSSVVTVPSSSLGTQTYICNVNHKPSNTKVDKKVEPKSCDKTHTCPPCPAPEAAGAPSVFLFPPKPKDTLMISRTPEVTCVVVDVSHEDPEVKFNWYVDGVEVHNAKTKPREEQYNSTYRVVSVLTVLHQDWLNGKEYKCKVSNKALPAPIEKTISKAKGQPREPQVYTLPPSREEMTKNQVSLTCLVKGFYPSDIAVEWESNGQPENNYKTTPPVLDSDGSFFLYSKLTVDKSRWQQGNVFSCSVMHEALHNHYTQKSLSLSPGRPQGFGPP
light: DIQMTQSPSSVSASVGDRVTITCRASQDIHGYLAWYQQKPGKAPKLLIYYTSSLQSGVPSRFSGSGSGTDFTLTISSLQPEDFATYYCQQGNTLPWTFGQGTKLEIKRTVAAPSVFIFPPSDEQLKSGTASVVCLLNNFYPREAKVQWKVDNALQSGNSQESVTEQDSKDSTYSLSSTLTLSKADYEKHKVYACEVTHQGLSSPVTKSFNRGEC
B7: TNT87 (antibody)
heavy: EVQLVESGGGLVQPGGSLRLSCAASGFTFSSYEMNWVRQAPGKGLEWVSYISSSGSTIYYADSVKGRFTISRDNAKNSLYLQMNSLRAEDTAVYYCARHSGYGTHWGVLFAYWGRGTLVTVSSASTKGPSVFPLAPSSKSTSGGTAALGCLVKDYFPEPVTVSWNSGALTSGVHTFPAVLQSSGLYSLSSVVTVPSSSLGTQTYICNVNHKPSNTKVDKKVEPKSCDKTHTCPPCPAPEAAGAPSVFLFPPKPKDTLMISRTPEVTCVVVDVSHEDPEVKFNWYVDGVEVHNAKTKPREEQYNSTYRVVSVLTVLHQDWLNGKEYKCKVSNKALPAPIEKTISKAKGQPREPQVYTLPPSREEMTKNQVSLTCLVKGFYPSDIAVEWESNGQPENNYKTTPPVLDSDGSFFLYSKLTVDKSRWQQGNVFSCSVMHEALHNHYTQKSLSLSPGRPQGFGPP
light: DIVMTQTPLSLSVTPGQPASISCRASQDIHGYLNWYQQKPGQSPQLLIYYTSILHSGVPDRFSGSGSGTDFTLKISRVEAEDVGVYFCQQGNTLPWTFGGGTKLEIKRTVAAPSVFIFPPSDEQLKSGTASVVCLLNNFYPREAKVQWKVDNALQSGNSQESVTEQDSKDSTYSLSSTLTLSKADYEKHKVYACEVTHQGLSSPVTKSFNRGEC

The first experiment addresses T1, CD22 (Homo sapiens, UniProt P20273).
Experiment: not given
Format: binding. Set-up: human CD22 (d1 to d7 domain according to NP_001762.2).
Conditions: not given
B1 yielded a ka of 201000 M⁻¹ s⁻¹ and a kd of 6.59e-05 s⁻¹.
The like results for B2 were, in that order, 81700 M⁻¹ s⁻¹ and 3.14e-05 s⁻¹.
In turn, B3 showed a ka of 114000 M⁻¹ s⁻¹ and a kd of 0.0021 s⁻¹.
The like results for B4 were, in that order, 125000 M⁻¹ s⁻¹ and 6.29e-05 s⁻¹.

Another experiment concerns the target T1, CD22. Briefly: SPR binding of humanized anti-CD22 antibodies (mAb supernatant) to human CD22. Details: human CD22 (d1 to d7 domain according to NP_001762.2). To be noted: SPR, mAb supernatant captured on protein A, human CD22-gly. On the procedure: Binding of humanized anti-CD22 antibodies to human CD22 was measured by surface plasmon resonance (SPR). For assessment of binding by SPR, biotinylated protein A (15 μg/mL) was immobilized to the surface of an NLC chip. 30 μL of mAb supernatant was added to 150 μL of PBS-T and captured over the protein A surface. […]
A general note: Surface plasmon resonance follows binding to a sensor surface in real time, without labels.
B5: the ka is 271000 M⁻¹ s⁻¹ and the kd amounted to 0.000667 s⁻¹.
Molecule B6 came in with a ka of 199000 M⁻¹ s⁻¹ and a kd of 0.00601 s⁻¹.
The like results for B7 were, in that order, 250000 M⁻¹ s⁻¹ and 0.00171 s⁻¹.

Still in this experiment, the particulars now being: human CD22.
As for B5, the “affinity compared with RFB4” value was “equivalent to RFB4”.

The values above are taken from patent US11920136B2, “Transglutaminase-mediated conjugation” (Tallac Therapeutics, Inc., priority 2020, dated 2024).
